Assay results taken from ChEMBL document CHEMBL1828538, “Synthesis and pharmacological evaluation of indole-based sigma receptor ligands” (Eur J Med Chem, 2011).
pKi: −log10 of the molar value.

Chains of the proteins cited; added tags and fusions are not shown.
UniProt Q9R0C9, whole entry: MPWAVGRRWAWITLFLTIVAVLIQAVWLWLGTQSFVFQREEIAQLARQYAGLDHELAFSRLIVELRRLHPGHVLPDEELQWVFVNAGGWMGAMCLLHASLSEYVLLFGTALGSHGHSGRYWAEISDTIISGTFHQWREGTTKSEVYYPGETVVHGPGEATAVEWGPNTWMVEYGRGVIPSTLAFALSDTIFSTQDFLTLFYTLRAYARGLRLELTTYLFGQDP
UniProt Q99720, whole entry: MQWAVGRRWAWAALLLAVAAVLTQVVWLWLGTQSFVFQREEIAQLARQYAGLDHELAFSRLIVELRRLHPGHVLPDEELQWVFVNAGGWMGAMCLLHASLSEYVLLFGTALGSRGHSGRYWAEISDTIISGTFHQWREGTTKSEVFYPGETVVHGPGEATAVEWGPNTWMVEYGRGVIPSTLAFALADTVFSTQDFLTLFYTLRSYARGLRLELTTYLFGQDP

Assays:
[1] = target: Sigma non-opioid intracellular receptor 1 (Rattus norvegicus, UniProt Q9R0C9); experiment: Displacement of (-)-[3H]pentazocine from sigma 1 receptor in rat brain membrane after 120 mins; format: cell membranes
[2] = Displacement of [3H]di-o-tolylguanidine from sigma 2 receptor in rat brain membrane after 120 mins; format: cell membranes
[3] = target: Sigma non-opioid intracellular receptor 1 (Homo sapiens, UniProt Q99720); experiment: Binding affinity to sigma 1 receptor
Rattus norvegicus = species: Rattus norvegicus; experiment: Selectivity ratio of Ki for sigma 1 receptor in rat brain membrane to sigma 2 receptor in rat brain membrane; format: cell membranes

SMILES: COc1cc2c(cc1OC)CN(CCCCn1cc(-c3ccc(F)cc3)c3ccccc31)CC2
- pKi [1]: 5.53
- pKi [2]: 8.13

SMILES: Fc1ccc(-n2cc(CCCCN3CCC4(CC3)OCc3ccccc34)c3ccccc32)cc1 [SIRAMESINE]
- pKi [3]: 7.77

SMILES: COc1cc2c(cc1OC)CN(CCCCn1ccc3ccccc31)CC2
- Ratio Ki (Rattus norvegicus): 38.4
